The assay deals with 5'-methylthioadenosine/S-adenosylhomocysteine nucleosidase (Escherichia coli (strain K12), UniProt P0AF12). Briefly: MTAP/MTAN Inhibition Assay. The settings on record: pH 7; 22 °C.

By UniProt entry, the sequences of proteins in these tests, tags left out. Where a name states a change or a piece, a line headed by the entry shows the natural chain unless it says otherwise.
UniProt P0AF12: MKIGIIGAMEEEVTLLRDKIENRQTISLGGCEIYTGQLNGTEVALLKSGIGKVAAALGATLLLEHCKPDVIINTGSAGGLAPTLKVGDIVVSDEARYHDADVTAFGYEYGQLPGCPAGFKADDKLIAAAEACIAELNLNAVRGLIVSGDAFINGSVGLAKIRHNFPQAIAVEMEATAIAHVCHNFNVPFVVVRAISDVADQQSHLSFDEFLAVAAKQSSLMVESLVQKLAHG

As a reminder, the Ki is a dissociation constant, usually derived from enzyme kinetics or from competition with a known ligand. A low value points to tighter binding. With `CSC[C@H]1CN(Cc2c[nH]c3c(N)ncnc23)C[C@@H]1O` [DADMe-ImmA-Me], the affinity, expressed as Ki, was 0.048 nM.

(Values after BindingDB's records for doi:10.1021/jm701265n (Industrial Research, 2008).)
